Two molecules from patent publication US9289478B2, “Formulations of tumour-associated peptides binding to human leukocyte antigen (HLA) class I or class II molecules for vaccine” (IMMATICS BIOTECHNOLOGIES GMBH, priority 2008, dated 2016) can be followed below.

Series [1] is described as follows: HPLC-assay for in-use stability after reconstitution with 4.2% sodium hydrogen carbonate solution (Example 3, peptides SEQ ID NO 11-23). It counts as physicochemical. How it is done: For clinical trials the above described formulation is dissolved in 700 μl sodium hydrogen carbonate (4.2%). To dissolve the lyophilisate, the vial and the diluent shall be shaken vigorously for 1 minute, check whether solution is clear, otherwise continue shaking for another minute until the solution is clear. Administration of 500 μL of the solution has to occur within 1 h after reconstitution. Dissolved lyophilisate may be stored aseptically at room temperature for up to 1 hour following reconstitution.
(§1) Identity, purity and peptide content are determined by analytical RP-HPLC chromatography. Detection wavelength was 220 nm.

The nature of series [2]: HPLC-assay for stability of peptides in lyophilised formulation on storage for 3 months (Example 4). It counts as physicochemical. As to conditions: for stability of peptides in formulation, 1 M: 1 month; for stability of peptides in formulation, 2 M: 2 months; for stability of peptides in formulation, 3 M: 3 months. How it is done:
as §1

Take `CC(C)C[C@H](NC(=O)[C@@H](NC(=O)[C@@H](NC(=O)[C@@H](NC(=O)CNC(=O)[C@H](C)NC(=O)[C@H](Cc1c[nH]c2ccccc12)NC(=O)[C@H](CC(C)C)NC(=O)[C@@H](N)CO)C(C)C)C(C)C)C(C)C)C(=O)O` [CHI-001, SLWAGVVVL]: the “in-use stability, Peptide [%]” value came to 100.7% in series [1] (+Mannitol/Lutrol, 4h) and 101.3% in series [1] (no excipients, 4h).

As to FLPSDFFPSV [HBV-001], the “in-use stability, Peptide [%]” value stood at 100.3% in series [1] (+Mannitol/Lutrol, 2h); 100.6% in series [1] (+Mannitol/Lutrol, 4h); 100.3% in series [1] (+Mannitol/Lutrol, 6h); 100.0% in series [1] (+Mannitol/Lutrol, Initial); 100.2% in series [1] (no excipients, 2h); 100.6% in series [1] (no excipients, 4h). The “in-use stability, Peptide [%]” value is listed as 95.8% in series [1] (no excipients, 6h) and 100.0% in series [1] (no excipients, Initial). Also, the “stability of peptides in formulation, 1 M” value is given as 98.87 % of Initial in series [2] (+5° C. +/- 3° C.), 97.83 % of Initial in series [2] (+25° C. +/- 2° C.) and 98.93 % of Initial in series [2] (-20° C. +/- 5° C.). The “stability of peptides in formulation, 2 M” value in series [2] (+5° C. +/- 3° C.) is reported as 97.76 % of Initial; in series [2] (+25° C. +/- 2° C.) it was 96.47 % of Initial; in series [2] (-20° C. +/- 5° C.), 97.39 % of Initial. Besides, the results for the “stability of peptides in formulation, 3 M” value in series [2] (+5° C. +/- 3° C.), in series [2] (+25° C. +/- 2° C.) and in series [2] (-20° C. +/- 5° C.) were 98.47 % of Initial, 97.50 % of Initial and 98.34 % of Initial, respectively. For the same molecule, the “stability of peptides in formulation, INITIAL” value in series [2] (+5° C. +/- 3° C.), in series [2] (+25° C. +/- 2° C.) and in series [2] (-20° C. +/- 5° C.) was 100.0% each time.
